Legend:
Experiment in all cases: SPR; Lge1-CT immobilised on a CM5 chip, Bre1-LR flown over; Biacore 8K, 25°C, 20 mM HEPES (pH 7.5), 200 mM sodium chloride, 0.02% Tween 20
[1] = target: Lge1-CT D287K (budding yeast) (UniProt Q02796)
[2] = target: Lge1-CT E278K/E282K (budding yeast) (UniProt Q02796)
[3] = target: Lge1-CT D312K (budding yeast) (UniProt Q02796)
[4] = target: Lge1-CT (Lge1 residues 261–332), intein-chitin binding domain (CBD) tag construct (budding yeast) (UniProt Q02796)

The chains behind the UniProt entries cited, without tags or fusion partners. Residues count along the entry.
UniProt Q02796, 261-332 D287K: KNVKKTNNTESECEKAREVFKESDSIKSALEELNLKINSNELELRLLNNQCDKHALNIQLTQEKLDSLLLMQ
UniProt Q02796, 261-332 E278K/E282K: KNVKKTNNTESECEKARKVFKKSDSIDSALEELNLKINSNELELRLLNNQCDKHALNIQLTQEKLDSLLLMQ
UniProt Q02796, 261-332 D312K: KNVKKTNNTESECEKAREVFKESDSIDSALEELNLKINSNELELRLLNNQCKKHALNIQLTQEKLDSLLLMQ
UniProt Q02796, 261-332: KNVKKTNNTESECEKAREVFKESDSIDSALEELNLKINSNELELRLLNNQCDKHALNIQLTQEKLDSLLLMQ

| Substance | koff [1] [s⁻¹] | kon [1] [M⁻¹ s⁻¹] | koff [2] [s⁻¹] | kon [2] [M⁻¹ s⁻¹] | koff [3] [s⁻¹] | kon [3] [M⁻¹ s⁻¹] | koff [4] [s⁻¹] | kon [4] [M⁻¹ s⁻¹] |
| --- | --- | --- | --- | --- | --- | --- | --- | --- |
| Bre1-LR (Bre1 residues 227–700, LBD and RING domains), 6× histidine tag (from UniProt Q07457 227-700) (domain or fragment) | 0.00921 | 63500 | 0.00548 | 57300 | 0.00138 | 53400 | – | – |
| Bre1-LR D389K/D390K (from UniProt Q07457 227-700) (domain or fragment) | – | – | – | – | – | – | 0.00425 | 56300 |
| Bre1-LR I397K (from UniProt Q07457 227-700) (domain or fragment) | – | – | – | – | – | – | 0.00216 | 52900 |

From paper PMC12802937
